The values below come from ChEMBL document CHEMBL4359905, “Discovery, structural insight, and bioactivities of BY27 as a selective inhibitor of the second bromodomains of BET proteins” (Eur J Med Chem, 2019).

Protein sequences, listed by entry. Tags and fused reporters are not part of them.
UniProt P25440, whole entry: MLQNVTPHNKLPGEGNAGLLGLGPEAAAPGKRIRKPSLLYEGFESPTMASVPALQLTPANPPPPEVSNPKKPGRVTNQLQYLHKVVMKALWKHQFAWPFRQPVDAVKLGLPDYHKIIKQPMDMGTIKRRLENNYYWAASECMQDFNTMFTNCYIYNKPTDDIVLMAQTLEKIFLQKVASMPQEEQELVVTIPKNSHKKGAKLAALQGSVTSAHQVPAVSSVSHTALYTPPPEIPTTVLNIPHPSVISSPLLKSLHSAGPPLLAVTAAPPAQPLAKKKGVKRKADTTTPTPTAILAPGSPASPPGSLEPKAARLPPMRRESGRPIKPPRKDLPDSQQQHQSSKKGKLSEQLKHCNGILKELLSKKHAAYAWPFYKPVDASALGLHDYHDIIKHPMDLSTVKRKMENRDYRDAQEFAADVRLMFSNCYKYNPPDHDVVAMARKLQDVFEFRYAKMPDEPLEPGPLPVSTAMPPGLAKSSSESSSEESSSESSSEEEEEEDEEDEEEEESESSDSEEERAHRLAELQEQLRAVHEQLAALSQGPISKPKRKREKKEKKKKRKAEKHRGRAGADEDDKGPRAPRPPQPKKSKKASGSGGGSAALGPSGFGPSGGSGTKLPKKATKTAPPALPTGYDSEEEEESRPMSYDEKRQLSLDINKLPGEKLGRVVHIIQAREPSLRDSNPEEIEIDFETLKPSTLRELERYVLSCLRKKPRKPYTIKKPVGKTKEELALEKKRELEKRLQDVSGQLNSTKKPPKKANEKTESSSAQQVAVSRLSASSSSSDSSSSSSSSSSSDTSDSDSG

SMILES strings stand for the structures.

As usually defined, the Ki is the equilibrium dissociation constant of an inhibitor or competing ligand from its target.

The test has as its target Bromodomain-containing protein 2 (Homo sapiens, UniProt P25440). The test is described as follows: Binding affinity to human recombinant BRD2 BD2 (349 to 460 residues) by fluorescence polarization assay. (In general: Fluorescence polarisation rises when a labelled molecule tumbles more slowly, as on binding a larger partner.)

On to `Cc1sc2c(c1C)C(c1ccc(Cl)cc1)=N[C@@H](CC(=O)Nc1ccc(O)cc1)c1nnc(C)n1-2` [BIRABRESIB], for which the Ki came to 10.3 nM.
